{"source": "patent US11369613B2", "about": "“Salts and solid form of a BTK inhibitor” (PRINCIPIA BIOPHARMA INC., priority 2014, dated 2022)", "conditions": "ambient temperature", "data": [{"substance": "2-[(3R)-3-[4-amino-3-(2-fluoro-4-phenoxy-phenyl)-pyrazolo[3,4-d]pyrimidin-1-yl]piperidine-1-carbonyl]-4-methyl-4-[4-(oxetan-3-yl)-piperazin-1-yl]pent-2-enenitrile hemisulfate [hemi-sulfate]", "values": [{"measurement": "Solubility in water", "value": "> 100", "unit": "mg/mL"}]}]}
